# Measured affinities in a library of Ab-14 light chain variants

Data: MIT Lincoln Laboratory AlphaSeq set, Engelhart et al. 2022, doi:10.1038/s41597-022-01779-4, as distributed in FLAb.

All variants were tested on one target, the spike HR2 peptide PDVDLGDISGINAS (SARS-CoV-2).

The variants keep the heavy chain, the linker and the frameworks of Ab-14 (scFv order VH, three GGGGS repeats, VL).
VH: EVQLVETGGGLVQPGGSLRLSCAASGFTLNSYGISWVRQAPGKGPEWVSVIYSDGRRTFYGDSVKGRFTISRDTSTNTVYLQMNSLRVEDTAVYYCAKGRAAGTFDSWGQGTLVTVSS
VL: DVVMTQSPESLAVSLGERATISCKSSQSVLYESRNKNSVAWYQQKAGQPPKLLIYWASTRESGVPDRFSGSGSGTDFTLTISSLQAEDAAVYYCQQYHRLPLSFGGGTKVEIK

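The parent was found by panning a naive human phage display library on the peptide. Variants in AAYL50 differ from the parent at up to three CDR positions; double and triple changes were sampled at random. The assay is AlphaSeq: two haploid yeast populations carry antibody and antigen on their surface. Mating (16 h, 30 °C) was followed by selection of diploids and sequencing of their barcodes. A regression on co-assayed BCL2-family reference pairs converts the normalised counts of each replicate to an apparent Kd. The assay was run in three technical replicates.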

Each variant is given by its three light chain CDRs, as the data file delimits them; those of the parent are KSSQSVLYESRNKNSVA, WASTRES, QQYHRLPLS. Numbers give log10(Kd / nM), so 0 is 1 nM and 3 is 1 µM. Smaller is tighter. A pair that was not seen in that replicate is written "ND"; this usually means weak binding, but a binder can also be missed.

CDR-L1,CDR-L2,CDR-L3,log10 Kd (nM) by replicate,control signals
KSNQSVLYESRNKNSVA,WASTRES,QQQMRLPLS,ND / ND / ND,6/9 (4.64)
KSSQSVTYESRSKNSVA,WASCRES,QQYHRLPLS,2.01 / 1.86 / 1.94,9/9 (4.27)
KSSQSVLYESRNTMSVA,WASTRFS,QQYHRLPLS,1.36 / 1.36 / 1.56,1/9 (3.16)
KSSQSVCYESRNKNSVA,WANTRES,NQYHRLPLS,3.31 / 3.70 / 2.91,3/9 (4.39)
KSSQSVTHESRNKNSVA,WISTRES,QQYHRLPLS,ND / 4.70 / 3.85,4/9 (4.01)
KSSHSVLYEERNKNSVA,WASTRES,QWYHRLPLS,3.50 / 2.27 / 2.79,0/9
KSSQSVLYESRFKNSVA,HASTRES,QQSHRLPLS,ND / 3.50 / ND,2/9 (3.31)
KSSQSVLYGSRNKNSVA,WASTRES,QQYHRLPLS,0.80 / 0.95 / 0.90,2/9 (4.84)
KSSQSVLYESRNKNSCA,DASTFES,QQYHRLPLS,3.58 / ND / 3.62,1/9 (4.47)
KSSQDVLYESRNKNSVA,WAVTRES,QQYHTLPLS,1.41 / 1.57 / 1.35,0/9
KSSQSVLYESRNKNSVA,WASTRES,QQYHRCPIT,ND / ND / ND,0/9
KLSQSVLYESRNKNSVA,WASKRES,QQYHRLPPS,0.91 / 0.94 / 0.86,5/9 (5.14)
ASSQSVLYESFNKNSVA,WASTRES,QQYHRLPLS,0.69 / 1.15 / 1.37,1/9 (4.45)
KSSFSVLAETRNKNSVA,WASTRES,QQYHRLPLS,ND / 4.65 / 4.89,1/9 (3.94)
KSSQSSLYESRNKNSVW,WASTRES,QQYHRLPLS,ND / ND / ND,0/9
KSSQSVLYESRNFNSYA,WASTRES,RQYHRLPLS,ND / ND / ND,2/9 (3.60)
KSPQSVLYESRNKNSCA,WASTRES,QQYHGLPLS,ND / ND / ND,2/9 (3.32)
VVSQSVLYESREKNSVA,WASTRES,QQYHRLPLS,0.76 / 0.90 / 0.90,1/9 (3.89)
KSSASRLYEQRNKNSVA,WASTRES,QQYHRLPLS,1.33 / 1.19 / 1.24,0/9
KHSQSVHYESRMKNSVA,WASTRES,QQYHRLPLS,1.33 / 1.65 / 1.60,2/9 (3.60)
KSSQSVLYESRNKNVYA,WTSTRES,QQYHRLPLS,3.23 / ND / ND,0/9
KSSQSVLYESRNCNSVA,WASTRAS,QQIHRLPLS,0.40 / 0.57 / 0.53,0/9
KSSQSVLYESRNKMIVA,WASTRES,QQYHRLPLS,ND / ND / ND,0/9
KSFQSVLYESRNKNSVA,WAATRES,QQHHRLPLS,ND / ND / ND,1/9 (4.54)
KSSQSVLYESRNKNSVA,WASTRES,QHTHRLPLS,1.31 / 1.55 / 1.57,6/9 (4.51)
KSSQSVLYESRMKNSVA,WASTFES,QMYHRLPLS,5.93 / 4.60 / 4.92,4/9 (4.33)
KSSVSVNYESRNKNSVA,WASTRES,QQYSRLPLS,ND / ND / ND,0/9
KSSQSVLHISRNKNSVA,WRSTRES,QQYHRLPLS,ND / 5.16 / ND,3/9 (4.95)
KSSQSVLYESRNKNSVD,WASTRES,QQFHRLPLA,ND / ND / ND,1/9 (3.71)
KSSRSVKYESRNKNSVA,WASTQES,QQYHRLPLS,ND / ND / ND,0/9
KSSQSVLYESRNKNSVP,WASTRES,QQMHRLPLS,ND / ND / ND,0/9
NSSQSVLYESRNKNSVA,WASTRES,QQFPRLPLS,ND / 3.67 / ND,2/9 (4.06)
KSSQSVLYESRNKNSYA,WASTRES,QQYHRLPLS,4.93 / ND / 5.24,2/9 (4.32)
KSSQSQLYESRNKSSDA,WASTRES,QQYHRLPLS,ND / ND / ND,0/9
KSSQLVLFESRNKNSVA,WDSTRES,QQYHRLPLS,1.78 / 1.63 / 1.85,0/9
KSSKSVLYESRNKNSVA,WASTRES,QQYHRLPLS,1.13 / 0.99 / 1.21,0/9
NSSQSVLYESRNKNSVA,WASTRES,QQYHRLPLS,1.10 / 1.11 / 1.15,2/9 (5.29)
KSSQSVLYESRNKNSVA,WASTREL,QQIKRLPLS,1.01 / 1.12 / 1.46,1/9 (3.82)
KSSQSDLYESRNKNSVA,WASTRES,QQYMKLPLS,ND / ND / ND,0/9
KSSQSVLYESRNKNSCA,WASTRES,IQYHRLPLS,4.78 / 3.54 / ND,4/9 (4.51)
KSSQSVLYESRQKNSVA,WQSTRAS,QQYHRLPLS,ND / ND / ND,3/9 (3.95)
KSSQSVLYESRNKNSAA,WASTRES,QQYCRPPLS,4.27 / 3.54 / ND,2/9 (4.62)
KSSQSVLYESRNKNSVA,WASTPES,QQYIRLPLG,ND / ND / ND,1/9 (3.46)
KSSQSVLYYSRNKNSVA,WATTGES,QQYHRLPLS,ND / ND / ND,0/9
KSRQSVLYESRNKNVVA,WASTRES,QQYHELPLS,2.02 / 1.77 / 2.12,2/9 (4.31)
KSYQSVLYETRNKNSVA,WASTRES,QQYHRLPLS,1.47 / 1.62 / 1.57,1/9 (3.49)
KSSQSWLEESRNKNSVA,WASTRES,QQYHFLPLS,1.01 / 1.20 / 1.02,0/9
KSSQSVLEESRNKNSVA,WASTRES,QQYHRLPLW,0.96 / 1.27 / 1.30,6/9 (4.27)
LSSQSVLYESRNKNSVA,LASTRKS,QQYHRLPLS,ND / 2.69 / 2.57,0/9
KSSQSVLYESRNKNSCA,WASTRRS,QQYHRLPKS,ND / 4.85 / ND,2/9 (3.62)
KASQSVLYESRNKNSVA,WASTRES,QQYHRLPLS,-0.04 / 0.44 / 0.33,2/9 (4.15)
KSSQSVLYESRNKNSVA,WSSTRES,QQYRKLPLS,2.75 / 2.67 / 2.88,0/9

A selection of 4 entries from above:

CDR-L1,CDR-L2,CDR-L3,log10 Kd (nM) by replicate,control signals
KSSRSVKYESRNKNSVA,WASTQES,QQYHRLPLS,ND / ND / ND,0/9
NSSQSVLYESRNKNSVA,WASTRES,QQYHRLPLS,1.10 / 1.11 / 1.15,2/9 (5.29)
KSSQLVLFESRNKNSVA,WDSTRES,QQYHRLPLS,1.78 / 1.63 / 1.85,0/9
KSSQSVLYGSRNKNSVA,WASTRES,QQYHRLPLS,0.80 / 0.95 / 0.90,2/9 (4.84)

Three control strains display no target. For library AAYL50, 18% of the pairings with them gave a signal, with a median of 4.19 and one signal in twenty below 2.99, so weak values seen in few replicates may be background. Also given: how often the same scFv was detected with the empty control strains, with their mean in brackets. For reference, the parent read 0.65 as the reference entry and 1.68 as a member of this library.